Earlier results in patent US20250177405A1, “METHODS OF TREATING NEUROLOGICAL AND CARDIOVASCULAR CONDITIONS” (ASTROCYTE PHARMACEUTICALS, INC., priority 2021, published 2025).

Chains of the proteins cited; added tags and fusions are not shown.
UniProt P30543, whole entry: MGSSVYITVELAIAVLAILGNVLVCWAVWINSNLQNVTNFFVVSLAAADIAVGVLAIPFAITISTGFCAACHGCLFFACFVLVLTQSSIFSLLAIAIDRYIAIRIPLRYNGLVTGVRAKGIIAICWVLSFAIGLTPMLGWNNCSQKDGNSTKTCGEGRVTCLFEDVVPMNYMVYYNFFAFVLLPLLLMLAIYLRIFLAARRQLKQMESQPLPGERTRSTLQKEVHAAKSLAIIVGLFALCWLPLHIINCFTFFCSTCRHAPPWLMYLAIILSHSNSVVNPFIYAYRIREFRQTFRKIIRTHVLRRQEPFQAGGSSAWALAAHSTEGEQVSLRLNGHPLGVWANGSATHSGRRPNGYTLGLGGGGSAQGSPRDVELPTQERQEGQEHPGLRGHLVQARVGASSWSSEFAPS

Target: A2a (Rattus norvegicus, UniProt P30543)
Details: read-out: A2a affinity; cited from earlier work

Question: For C[C@H](Cc1ccccc1)Nc1ncnc2c1ncn2[C@@H]1O[C@H](CO)[C@@H](O)[C@H]1O [Compound I-25, N^6-(L-2-Phenylisopropyl)adenosine], which Ki is on record?
Answer: 220 nM
